Test: activity coefficient (dimensionless); of the first substance listed, at infinite dilution; xn = mol fraction of the nth substance listed
Conditions: 101 kPa, Liquid, Chromatography, x1 = 0

CCCCOCCCC [dibutyl ether] + COCC[N+]1(C)CCCC1.O=S(=O)([N-]S(=O)(=O)C(F)(F)F)C(F)(F)F
Conditions	activity coefficient
318.15 K	15.8
328.15 K	15
338.15 K	14.2
348.15 K	13.4
358.15 K	12.8
368.15 K	12.2
